Laboratory results published in ChEMBL document CHEMBL2390816, “Structure-based optimization of oxadiazole-based GSK-3 inhibitors” (Eur J Med Chem, 2013).

The chains behind the UniProt entries cited, without tags or fusion partners. Where a name states a change or a piece, a line headed by the entry shows the natural chain unless it says otherwise.
UniProt P49841: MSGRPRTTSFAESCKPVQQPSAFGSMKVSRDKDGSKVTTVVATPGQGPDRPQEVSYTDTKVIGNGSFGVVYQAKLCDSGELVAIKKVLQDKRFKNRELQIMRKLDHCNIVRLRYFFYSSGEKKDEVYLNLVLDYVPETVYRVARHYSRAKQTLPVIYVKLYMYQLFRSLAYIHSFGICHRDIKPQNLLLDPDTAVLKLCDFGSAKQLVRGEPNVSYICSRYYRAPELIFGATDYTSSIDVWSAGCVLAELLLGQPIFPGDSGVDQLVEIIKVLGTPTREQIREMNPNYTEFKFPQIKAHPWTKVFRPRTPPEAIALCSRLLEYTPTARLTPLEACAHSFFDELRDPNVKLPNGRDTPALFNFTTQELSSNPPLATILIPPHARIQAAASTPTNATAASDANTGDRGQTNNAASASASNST

Target: Glycogen synthase kinase-3 beta (Homo sapiens, UniProt P49841)
Test: Inhibition of human recombinant GSK3beta using pIRS-1 (RREGGMSRPAS(p)VDG) as substrate assessed as residual activity at 10 uM after 15 mins in presence of 32P[gamma-ATP]

| Compound | Activity [%] |
| --- | --- |
| N#Cc1ccc(/C=N/NC(=O)c2ccncc2)cc1 | > 50 |
| O=[N+]([O-])c1ccc(-c2nnc(SCc3ccccc3)o2)cc1 | > 50 |
| N#Cc1ccc(-c2nnc(SCc3ccc(-c4ccccc4C#N)cc3)o2)cc1 | > 50 |
| COc1cccc(CSc2nnc(-c3ccc([N+](=O)[O-])cc3)o2)c1 | > 50 |
| N#Cc1ccccc1-c1ccc(CSc2nnc(-c3ccc([N+](=O)[O-])cc3)o2)cc1 | > 50 |
| N#Cc1ccccc1-c1ccc(CSc2nnc(-c3ccccc3)o2)cc1 | > 50 |
| COc1cccc(CSc2nnc(-c3ccccc3)o2)c1 | > 50 |
| c1ccc(CSc2nnc(-c3ccccc3)o2)cc1 | > 50 |
| N#Cc1ccc(-c2nnc(SCc3cccc(C#N)c3)o2)cc1 | > 50 |
| COc1ccc(/C=N/NC(=O)c2ccncc2)cc1 | > 50 |
| N#Cc1ccc(-c2nnc(SCc3ccccc3)o2)cc1 | > 50 |
| COc1ccc(-c2nnc(SCc3cccc(C#N)c3)o2)cc1 | > 50 |
| COc1cccc(CSc2nnc(-c3ccc(C#N)cc3)o2)c1 | > 50 |
| CCc1ccc(/C=N/NC(=O)c2ccncc2)cc1 | > 50 |
| O=C(N/N=C/c1ccccc1)c1ccncc1 | > 50 |
| COc1ccc(-c2nnc(SCc3ccc(-c4ccccc4C#N)cc3)o2)cc1 | > 50 |
| N#Cc1cccc(CSc2nnc(-c3ccccc3)o2)c1 | > 50 |
| N#Cc1cccc(CSc2nnc(-c3ccc([N+](=O)[O-])cc3)o2)c1 | > 50 |
| COc1ccc(-c2nnc(SCc3ccccc3)o2)cc1 | > 50 |
| COc1ccc(-c2nnc(SCc3cccc(OC)c3)o2)cc1 | > 50 |
